Results taken from paper PMC2578980 (The Yale Journal of Biology and Medicine, 1998).

Target: T1, human CCK-BR (Homo sapiens, UniProt P32239)
T1 sequence (P32239 1-447): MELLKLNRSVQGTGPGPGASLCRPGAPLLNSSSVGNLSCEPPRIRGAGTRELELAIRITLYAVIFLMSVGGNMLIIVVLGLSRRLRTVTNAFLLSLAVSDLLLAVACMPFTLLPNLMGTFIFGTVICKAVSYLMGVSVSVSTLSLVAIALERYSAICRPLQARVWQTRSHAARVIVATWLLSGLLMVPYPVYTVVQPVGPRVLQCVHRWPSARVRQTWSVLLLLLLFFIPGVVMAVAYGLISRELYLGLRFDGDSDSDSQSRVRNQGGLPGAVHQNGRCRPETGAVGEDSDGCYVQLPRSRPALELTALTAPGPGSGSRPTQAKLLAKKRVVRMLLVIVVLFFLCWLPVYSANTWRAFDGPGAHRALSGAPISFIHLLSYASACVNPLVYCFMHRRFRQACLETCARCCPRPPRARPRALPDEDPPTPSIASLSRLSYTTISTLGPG
Assay: Measurement of [Ca2+]i
Type: cell-based
Conditions: COS-7 cells transiently expressing the CCK-BR

concentrations sufficient to fully stimulate Ca2+ release: nanomolar concentrations
Substance: cholecystokinin octapeptide [CCK-8]
